{"source": "patent US20070218475A1", "about": "“Efficient drug screening for protein targets” (priority 2005, published 2007)", "origin": "cited, not measured here", "test_system": "pancreatic tumor xenografts", "conditions": "nude mice; cited from earlier work"}
{"smiles": "CC1=C2C[C@H]3[C@@H](CC=C4C[C@@H](O)CC[C@@]43C)[C@@H]2CC[C@]12O[C@@H]1C[C@H](C)CN[C@H]1[C@H]2C", "note": "[cyclopamine]", "values": [{"measurement": "growth of pancreatic tumor xenografts", "result": "suppress growth"}]}
